{
  "sequences": {"note": "Sequences of proteins named here, by UniProt entry; tags and fusion partners are left off.", "UniProt P21554, whole entry": "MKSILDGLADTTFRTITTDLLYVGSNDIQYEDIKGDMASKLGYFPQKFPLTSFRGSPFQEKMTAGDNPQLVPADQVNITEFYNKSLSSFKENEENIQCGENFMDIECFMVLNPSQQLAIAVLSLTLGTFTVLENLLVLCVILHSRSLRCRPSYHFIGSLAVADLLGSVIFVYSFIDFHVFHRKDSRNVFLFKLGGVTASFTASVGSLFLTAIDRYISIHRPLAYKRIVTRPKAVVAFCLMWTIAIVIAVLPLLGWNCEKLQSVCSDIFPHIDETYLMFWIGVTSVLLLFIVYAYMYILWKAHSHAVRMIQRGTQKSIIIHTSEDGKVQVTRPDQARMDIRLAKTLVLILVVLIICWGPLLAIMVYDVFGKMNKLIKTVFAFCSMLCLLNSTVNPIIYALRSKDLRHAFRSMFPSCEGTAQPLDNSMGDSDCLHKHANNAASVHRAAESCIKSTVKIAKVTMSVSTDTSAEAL", "UniProt P47746, whole entry": "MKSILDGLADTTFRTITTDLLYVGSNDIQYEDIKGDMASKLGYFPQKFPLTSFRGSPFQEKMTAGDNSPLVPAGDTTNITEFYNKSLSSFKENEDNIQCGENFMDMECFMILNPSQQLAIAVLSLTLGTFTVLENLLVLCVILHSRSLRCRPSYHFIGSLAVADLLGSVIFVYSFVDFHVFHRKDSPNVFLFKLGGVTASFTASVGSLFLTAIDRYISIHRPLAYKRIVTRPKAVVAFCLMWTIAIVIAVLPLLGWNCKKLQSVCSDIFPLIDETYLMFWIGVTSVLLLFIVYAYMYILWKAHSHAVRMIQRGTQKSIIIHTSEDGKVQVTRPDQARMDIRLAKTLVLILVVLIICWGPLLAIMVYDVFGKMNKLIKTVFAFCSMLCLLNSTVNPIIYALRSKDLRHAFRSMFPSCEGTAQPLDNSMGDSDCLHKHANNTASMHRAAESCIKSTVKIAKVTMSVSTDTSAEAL"},
  "source": "paper PMC9318133",
  "about": "“In Vivo Bio-Activation of JWH-175 to JWH-018: Pharmacodynamic and Pharmacokinetic Studies in Mice” (International Journal of Molecular Sciences, 2022)",
  "key": {"human CB1 receptors": {"biological_target": "T1, human CB1 receptors (Homo sapiens, UniProt P21554)", "T1 construct": "host or cells: CHO cells", "experiment": "[3H]-CP-55,940 competition binding, CHO cell membranes transfected with human CB1 receptors"}, "mouse CB1 receptors": {"biological_target": "T2, mouse CB1 receptors (Mus musculus, UniProt P47746)", "T2 construct": "membranes from the mouse brain and spleen were used, respectively; from tissue", "experiment": "[3H]-CP-55,940 competition binding, mouse brain (cortex) membranes", "settings": "ratio of Ki values", "experimental": "To evaluate the affinity of JWH-175 for murine CB1 and CB2 receptors, membranes from the mouse brain and spleen were used, respectively. Following excision from mice, tissues were suspended in 50 mM Tris HCl, pH 7.4, at 4 °C. The mouse brain and spleen tissues were homogenized with a Polytron and subsequently centrifuged for 10 min at 2000× g. The resulting supernatants were filtered and centrifuged for 20 min at 40,000× g, and the pellets were used for competition binding experiments.\nCompetition binding experiments were carried out by incubating 0.5 nM [3H]-CP-55,940 (Perkin Elmer Life and Analytical Sciences, Waltham, MA, USA) and different concentrations of the tested compounds for 90 or 60 min at 30 °C for CB1 or CB2 receptors, respectively. […] Non-specific binding was determined in the presence of 1 μM WIN 55,212-2 [92]. Bound and free radioactivity were separated by filtering the assay mixture through Whatman GF/C glass fiber filters using a Brandel cell harvester (Brandel Instruments, Unterföhring, Germany). The filter-bound radioactivity was counted using a Packard Tri Carb 2810 TR scintillation counter (Perkin Elmer Life and Analytical Sciences, Waltham, MA, USA).\nThe protein concentration was determined according to a Bio-Rad method with bovine serum albumin as a reference standard. […] All the data are expressed as the mean ± SEM of three independent experiments."}},
  "data": [
    {"compound": "CCCCCn1cc(Cc2cccc3ccccc23)c2ccccc21", "note": "[JWH-175, 3-(1-naphthalenylmethyl)-1-pentyl-1H-indole]", "values": [
      {"measurement": "selectivity index (ratio between the Ki value to human CB2 and the Ki value to human CB1)", "setting": "human CB1 receptors", "result": 14},
      {"measurement": "fold lower affinity than JWH-018 at mouse CB1 receptors", "setting": "mouse CB1 receptors", "result": 5.77, "unit": "fold"}
    ]}
  ]
}
